Assay [1] deals with MOR kinase pathways in HEK-MOR cells. As to the kind of experiment: DMR after pretreatment with kinase inhibitors (assays J-M). Format: cell-based, human. The settings on record: ligand 10 µM, maximum within 15 min.
For assay [2], the system named is MOR G-protein signaling in HEK-MOR cells. The settings on record: ligand 10 µM.

With `CN(C(=O)Cc1ccc(Cl)c(Cl)c1)[C@H](CN1CCCC1)c1ccccc1` [ICI 199,441], the “maximal DMR response after SB202190 pretreatment vs untreated” value in assay [1] (10 µM SB202190 1 hr) is recorded as “significantly reduced”. Also, the “maximal DMR response after SP100625 pretreatment vs untreated” value in assay [1] (10 µM SP100625 1 hr) was “enhanced”. Further, in assay [2] (100 ng/ml PTx 20 hr), the “ligand-induced DMR in pertussis toxin (PTx)-pretreated cells” value is “small N-DMR”. Besides, the “ligand-induced DMR in cholera toxin (CTx)-pretreated cells vs untreated” value in assay [2] (400 ng/ml CTx 20 hr) was “reduce”.

These data come from paper PMC3189208 (PLoS ONE, 2011).
